Legend:
Ovis aries = species: Ovis aries; assay: Selectivity ratio of IC50 for ovine COX-1 to IC50 for ovine COX-2
[1] = Antiplatelet activity in rabbit platelets assessed as inhibition of adenosin 5'-diphosphate-induced platelet aggregation; type: functional, cell-based; details: Oryctolagus cuniculus

For C=CCC1=C[C@@]2(OC)C(=CC1=O)O[C@H](c1cc(OC)c(OC)c(OC)c1)[C@H]2C [MIRANDIN A], which Ratio IC50 (Ovis aries) is on record?
The Ratio IC50 was 13.2.

And the IC50 [1]?
Its IC50 is 121 µM.

From ChEMBL document CHEMBL1156142, “COX, LOX and platelet aggregation inhibitory properties of Lauraceae neolignans” (Bioorg Med Chem Lett, 2009)
